{
  "source": "patent US8754031B2",
  "about": "“Use of prolactin receptor antagonists in combination with an agent that inactivates the HER2/neu signaling pathway” (Oncolix, Inc., priority 2004, dated 2014)",
  "key": {"[1]": {"test_system": "Stat5a/b phosphorylation in T-47D cells", "assay": "Inhibition of phosphorylation of Stat5a/b, Western blot", "assay_type": "cell-based, human", "conditions": "48 hours, 10 μg, in the presence of hPRL 100 ng/ml (FIG. 6)", "description": "FIG. 6. […] T-47D cells were cultured overnight at 60% confluency and were maintained in phenol red-free and serum-free RPMI-1640 for 72 hours before stimulation. […] Lane A is the control cells that are untreated. […] Activation of Stat5 was analyzed by WB with anti-phospho-specific antibodies in 50 μg protein extracts."}, "T-47D cells": {"test_system": "T-47D cells", "assay": "Cell proliferation, ViaCount reagent and Guava PCA cytometer (viable cells)", "assay_type": "cell-based, human", "conditions": "24 hours of treatment, G129R 1 μg/ml, HERCEPTIN 20 μg/ml (FIG. 3)", "description": "FIG. 3. […] The y-axis represents percent viable cells after each treatment.\nThis assay permits the determination of the number of total and viable cells in cultures. Cell proliferation was determined as a measure of the number of viable cells after 24 hours of treatment (FIG. 3)."}},
  "data": [
    {"substance": "HERCEPTIN® (trastuzamab): humanized monoclonal antibody directed to the HER2 ectodomain (Genentech) [reference compound]", "values": [
      {"measurement": "inhibition of Stat5a/b phosphorylation", "setting": "[1]", "value": "but not"},
      {"measurement": "decrease in proliferative ability / cell number compared to untreated control cells", "setting": "T-47D cells", "value": 54, "unit": "%"}
    ]}
  ]
}
